In patent publication US20240245770A1, “COMPOSITIONS AND METHODS FOR TREATING NEUROMUSCULAR DISORDERS” (The Regents of the University of California, priority 2019, published 2024):

Experiments:
Assay type in all cases: cell-based, human
[1] = system: oral squamous carcinoma stem cells (OSCSCs); experiment: 51Cr release cytotoxicity of NK cells cultured with autologous or allogeneic monocytes
Protocol: Increased cytotoxicity of NK cells cultured with autologous or allogeneic monocytes by ALS patient (FIG. 11). NK with different donor monocytes. Purified NK cells were treated with the combination of IL-2 and anti-CD16 mAb (3 μg/ml), and cultured with autologous and allogeneic monocytes at (1:1 NK:monocyte ratios). After an overnight incubation, the NK cell mediated cytotoxicity was determined by the standard 4-hour chromium release assay using oral squamous carcinoma stem cells (OSCSCs) as targets. The lytic units 30/10^6 cells were determined using inverse number of NK cells required to lyse 30% of the target cells×100.
Purified NK cells were treated with the combination of IL-2 and anti-CD16 mAb (3 μg/ml), and cultured with autologous monocytes at (1:1 NK:monocyte ratios). After an overnight incubation, the NK cell mediated cytotoxicity was determined by the standard 4-hour chromium release assay using oral squamous carcinoma stem cells (OSCSCs) as targets. The lytic units 30/10^6 cells were determined using inverse number of NK cells required to lyse 30% of the target cells×100.

[2] = system: oral squamous carcinoma stem cells (OSCSCs); experiment: 51Cr release NK cytotoxicity of treated PBMCs against OSCSCs; details: for Cr release assay, NK cell mediated cytotoxicity: overnight treatment; for cytotoxicity of NK cells, Mean: Table 102; for NK cell cytotoxicity, Mean: Table 195
Protocol: The ^51Cr release assay was performed as described previously. Patient-derived OSCSCs were used as a specific and sensitive NK targets to assess NK cell-mediated cytotoxicity. Briefly, different numbers of effector cells were incubated with ^51Cr-labeled OSCSCs. After 4-hour incubation the supernatants were harvested from each sample and counted on a gamma counter. The percentage specific cytotoxicity was calculated using the following formula:
Lytic unit 30/10^6 is calculated by using the inverse of the number of effector cells needed to lyse 30% of tumor target cells×100.
PBMC were left untreated, or treated with IL-2 (1000 U/mL) or treated with the combination of IL-2 and anti-CD16 mAb (3 μg/ml), or IL-2+ anti-CD3/28 antibodies (25 μl/mL) as shown in the figure. After an overnight incubation, the NK cell mediated cytotoxicity was determined by the standard 4-hour chromium release assay using oral squamous carcinoma stem cells (OSCSCs) as targets. The lytic units 30/10^6 cells were determined using inverse number of NK cells required to lyse 30% of the target cells×100. No significant differences in primary NK cytotoxicity within PBMCs between the donors (FIG. 2B).
PBMC cytotoxicity. PBMC were left untreated, or treated with IL-2 (1000 U/mL) or treated with the combination of IL-2 and anti-CD16 mAb (3 μg/ml), or IL-2+anti-CD3/28 antibodies (25 μl/mL) and IL-2+sAJ2 (1:20 PBMC:sAJ2 ratio) as shown in the figure. After an overnight incubation, the NK cell mediated cytotoxicity was determined by the standard 4-hour chromium release assay using oral squamous carcinoma stem cells (OSCSCs) as targets. The lytic units 30/10^6 cells were determined using inverse number of NK cells required to lyse 30% of the target cells×100 (Table 18).

[3] = system: purified CD4+ T cells; experiment: CD4 T cell ELISA, IFN-γ secretion
Protocol: PBMC and CD4 T cell ELISA. PBMCs and purified CD4+ T cells were left untreated, treated with IL-2 (1000 U/mL) or treated with the combination of IL-2 and anti-CD16 mAb (3 μg/ml), IL-2+anti-CD3/28 antibodies (25 μl/mL) or IL-2+sAJ2 (Cells:sAJ2 1:20). After an overnight treatment at 37° C., the supernatants were harvested and the levels of IFN-γ secretion were measured using ELISA (Tables 44-45).

In the case of Recombinant human IL-2, the NK cytotoxicity ([1]; H84 JC NK + allo monocyte) is reported as 195.55 lytic units 30/10^6 cells, the NK cytotoxicity ([1]; H84 JC NK + auto monocyte) is reported as 169.51 lytic units 30/10^6 cells and the NK cytotoxicity ([1]; H85 TC NK + allo monocyte) is reported as 127.14 lytic units 30/10^6 cells. The NK cytotoxicity ([1]; H85 TC NK + auto monocyte) was 168.11 lytic units 30/10^6 cells, the “NK cell mediated cytotoxicity” value ([1]; Table 9, H51 NK + H51 monocyte, row 2.5) was 57.9 and the “NK cell mediated cytotoxicity” value ([1]; Table 9, H51 NK + H51 monocyte, row 5) was 87.0. For the same substance, the “NK cell mediated cytotoxicity” value ([1]; Table 12, H53 NK + H51 JC monocyte, row 2.5) was 48.1, the “NK cell mediated cytotoxicity” value ([1]; Table 12, H53 NK + H51 JC monocyte, row 5) was 68.1 and the “NK cell mediated cytotoxicity” value ([1]; Table 13, H53 NK + H52 TC monocyte, row 2.5) was 44.2. For the same substance, the “NK cell mediated cytotoxicity” value ([1]; Table 13, H53 NK + H52 TC monocyte, row 5) was 62.7, the “Cr release assay, NK cell mediated cytotoxicity” value (shortened to “Cr release assay”) ([2]; H65 SM PBMC) was 36.23 lytic units 30/10^6 cells and the “Cr release assay” value ([2]; H66 JC (ALS) PBMC) was 35.36 lytic units 30/10^6 cells. The “Cr release assay” value ([2]; H67 MK PBMC) was 44.41 lytic units 30/10^6 cells, the PBMC cytotoxicity ([2]; H80 DM PBMC) was 7.04 lytic units 30/10^6 cells and the PBMC cytotoxicity ([2]; H81 JC (ALS) PBMC) was 15.09 lytic units 30/10^6 cells. For the same substance, the PBMC cytotoxicity ([2]; H82 TC (healthy twin) PBMC) was 9.04 lytic units 30/10^6 cells, the “PBMC (Cr51) cytotoxicity” value ([2]; H84 JC (ALS) AM) was 21.96 lytic units 30/10^6 cells and the “PBMC (Cr51) cytotoxicity” value ([2]; H85 TC (healthy twin) AM) was 25.98 lytic units 30/10^6 cells. The “PBMC (Cr51) cytotoxicity” value ([2]; H86 JC (ALS) PM) was 13.68 lytic units 30/10^6 cells, the “PBMC (Cr51) cytotoxicity” value ([2]; H87 TC (healthy twin) PM) was 17.09 lytic units 30/10^6 cells and the PBMC cytotoxicity ([2]; H88 JC (ALS) PBMC) was 17.85 lytic units 30/10^6 cells. The PBMC cytotoxicity ([2]; H89 TC (healthy twin) PBMC) was 23.85 lytic units 30/10^6 cells, the “PBMC cytotoxicity, LU30 Averages” value ([2]; H90 JC (ALS) PBMC) was 7.28 lytic units 30/10^6 cells and the “PBMC cytotoxicity, LU30 Averages” value ([2]; H91 TC (healthy twin) PBMC) was 22.55 lytic units 30/10^6 cells. For the same substance, the “cytotoxicity of NK cells, Mean” value ([2]; H105 JC (ALS)) was 15.37, the “cytotoxicity of NK cells, Mean” value ([2]; H106 TC (control twin)) was 12.76 and the “lytic units 30/10^6 cells, Mean” value ([2]; H131 JC) was 29.22 lytic units 30/10^6 cells. For the same substance, the “lytic units 30/10^6 cells, Mean” value ([2]; H132 TC) was 36.04 lytic units 30/10^6 cells, the “lytic units 30/10^6 cells, Mean” value ([2]; H133 WO) was 54.49 lytic units 30/10^6 cells and the “NK cytotoxicity of PBMC, Mean” value ([2]; H160 JC PBMC) was 3.93. For the same substance, the “NK cytotoxicity of PBMC, Mean” value ([2]; H161 TC PBMC) was 3.71, the “NK cytotoxicity of PBMC, Mean” value ([2]; H162 WO PBMC) was 32.75 and the “NK cytotoxicity of PBMC, Mean” value ([2]; H165 RS PBMC) was 80.29. The “NK cytotoxicity of PBMC, Mean” value ([2]; H169 JC PBMC) was 34.90, the “NK cytotoxicity of PBMC, Mean” value ([2]; H170 TC PBMC) was 24.21 and the “NK cytotoxicity in PBMCs, Mean” value ([2]; H171 JC PBMC, ALS) was 16.43. The “cytotoxicity of NK cells in PBMCs, Mean” value ([2]; H171 JC PBMC, ALS) was 42.30, the “NK cytotoxicity in PBMCs, Mean” value ([2]; H172 TC PBMC, control twin) was 33.37 and the “cytotoxicity of NK cells in PBMCs, Mean” value ([2]; H172 TC PBMC, control twin) was 31.50. The “NK cytotoxicity, Mean” value ([2]; H184 JC PBMC, Table 191) was 38.83, the “NK cytotoxicity, Mean” value ([2]; H185 TC PBMC, Table 191) was 22.48 and the “NK cell cytotoxicity, Mean” value ([2]; H186 JC PBMC) was 31.20. The “NK cell cytotoxicity, Mean” value ([2]; H187 TC PBMC) was 6.37, the “NK cell cytotoxicity, Mean” value ([2]; H190 RS PBMC) was 38.68 and the “NK cytotoxicity, Mean” value ([2]; H194 JC PBMC, Table 201) was 9.69. The “NK cytotoxicity, Mean” value ([2]; H195 RS PBMC, Table 201) was 8.03, the “NK cytotoxicity, Mean” value ([2]; H196 TC PBMC, Table 201) was 7.23 and the “NK cytotoxicity, Mean” value ([2]; H197 YC PBMC, Table 201) was 13.85. The “NK cytotoxicity, Mean” value ([2]; H198 MK PBMC, Table 201) was 8.32, the “NK cytotoxicity, Mean” value ([2]; H202 JC PBMC, Table 218) was 43.67 and the “NK cytotoxicity, Mean” value ([2]; H203 TC PBMC, Table 218) was 26.92. The “NK cytotoxicity, Mean” value ([2]; H204 RS PBMC, Table 218) was 35.63, the “NK cytotoxicity, Mean” value ([2]; H211 JC PBMC (ALS patient)) was 9.20 and the “NK cytotoxicity, Mean” value ([2]; H212 TC PBMC (twin control)) was 6.96. The “NK cytotoxicity, Mean” value ([2]; H213 JC PBMC (ALS patient)) was 21.64, the “NK cytotoxicity, Mean” value ([2]; H214 TC PBMC (twin control)) was 22.56 and the “Cr release assay” value ([2]; P66 LP PBMC) was 61.31 lytic units 30/10^6 cells. For the same substance, the PBMC cytotoxicity ([2]; P82 SS PBMC) was 12.53 lytic units 30/10^6 cells, the “Lytic units, Mean” value ([2]; P153 PBMC) was 31.23 Lu70/10^6 and the “LU AVERAGE” value ([2]; PBMC H140 JC) was 18.03 LU 30/106 cells. The “LU AVERAGE” value ([2]; PBMC H141 RS) was 2.14 LU 30/106 cells, the “LU AVERAGE” value ([2]; PBMC H142 JS) was 15.16 LU 30/106 cells and the “lytic units 30/10^6 cells, Mean” value ([2]; PBMC H143 JC) was 20.96 lytic units 30/10^6 cells. The “lytic units 30/10^6 cells, Mean” value ([2]; PBMC H144 TC) was 16.77 lytic units 30/10^6 cells, the “lytic units 30/10^6 cells, Mean” value ([2]; PBMC H145 WO) was 11.70 lytic units 30/10^6 cells and the “lytic units 30/10^6 cells, Mean” value ([2]; PBMC H146 JC) was 21.79 lytic units 30/10^6 cells. The “lytic units 30/10^6 cells, Mean” value ([2]; PBMC H147 TC) was 12.29 lytic units 30/10^6 cells, the “lytic units 30/10^6 cells, Mean” value ([2]; PBMC H148 WO) was 8.22 lytic units 30/10^6 cells and the “51Cr release PBMC Mean” value ([2]; PBMC of H102 JC) was 44.25 lytic units 30/10^6 cells. For the same substance, the “51Cr release PBMC Mean” value ([2]; PBMC of H103 TC) was 49.87 lytic units 30/10^6 cells, the “51Cr release PBMC Mean” value ([2]; PBMC of H104 RS (another patient with ALS)) was 66.24 lytic units 30/10^6 cells and the “51Cr PBMC cytotoxicity, Mean” value ([2]; PBMC of H106 JC (ALS patient)) was 16.36 lytic units 30/10^6 cells. The “PBMC cytotoxicity, Mean” value ([2]; PBMC of H109 RS1 (ALS patient, Pre-NAC)) was 15.02 lytic units 30/10^6 cells, the “PBMC cytotoxicity, Mean” value ([2]; PBMC of H110 RS2 (ALS patient, Post-NAC)) was 27.60 lytic units 30/10^6 cells and the “PBMC cytotoxicity, Mean” value ([2]; PBMC of H111 AK (control)) was 26.01 lytic units 30/10^6 cells. For the same substance, the “PBMC cytotoxicity, Mean” value ([2]; PBMC of H117 JC (ALS)) was 9.22 lytic units 30/10^6 cells, the “H117.1 JC PBMC, Mean” value ([2]; PBMC of H117.1 JC (ALS patient), Table 106) was 3.93 and the “PBMC cytotoxicity, Mean” value ([2]; PBMC of H118 TC (control twin)) was 8.97 lytic units 30/10^6 cells. For the same substance, the “PBMC cytotoxicity, Mean” value ([2]; PBMC of H119 BM) was 10.88 lytic units 30/10^6 cells, the “PBMC cytotoxicity, Mean” value ([2]; PBMC of H120 JC (ALS)) was 20 lytic units 30/10^6 cells and the “PBMC cytotoxicity, Mean” value ([2]; PBMC of H121 TC (control twin)) was 28.10 lytic units 30/10^6 cells. The “PBMC cytotoxicity, Mean” value ([2]; PBMC of H122 MV) was 175.4 lytic units 30/10^6 cells, the “PBMC cytotoxicity, Mean” value ([2]; PBMC of P99 ME (control)) was 17.22 lytic units 30/10^6 cells and the “IFN-γ secretion (ELISA)” value ([3]; H88 JC CD4, Day1, 1:8 dilution) was 371.58. For the same substance, the “IFN-γ secretion (ELISA)” value ([3]; H88 JC CD4, Day4, 1:8 dilution) was 326.06, the “IFN-γ secretion (ELISA)” value ([3]; H88 JC CD4, Day10, 1:8 dilution) was 437.34 and the “IFN-γ secretion (ELISA)” value ([3]; H88 JC CD4, Day12, 1:8 dilution) was 505.12. The “IFN-γ secretion (ELISA)” value ([3]; H89 TC CD4, Day1, 1:8 dilution) was 470.72, the “IFN-γ secretion (ELISA)” value ([3]; H89 TC CD4, Day4, 1:8 dilution) was 547.61 and the “IFN-γ secretion (ELISA)” value ([3]; H89 TC CD4, Day10, 1:8 dilution) was 612.35. The “IFN-γ secretion (ELISA)” value ([3]; H89 TC CD4, Day12, 1:8 dilution) was 622.47.
